Molecular target: 5-hydroxytryptamine receptor 6 (Homo sapiens, UniProt P50406)
Assay: Antagonist activity at human cloned 5HT6 receptor expressed in human HeLa cells assessed as intracellular cAMP formation by RIA
Assay type: functional, cell-based

The chains behind the UniProt entries cited, without tags or fusion partners.
UniProt P50406, whole entry: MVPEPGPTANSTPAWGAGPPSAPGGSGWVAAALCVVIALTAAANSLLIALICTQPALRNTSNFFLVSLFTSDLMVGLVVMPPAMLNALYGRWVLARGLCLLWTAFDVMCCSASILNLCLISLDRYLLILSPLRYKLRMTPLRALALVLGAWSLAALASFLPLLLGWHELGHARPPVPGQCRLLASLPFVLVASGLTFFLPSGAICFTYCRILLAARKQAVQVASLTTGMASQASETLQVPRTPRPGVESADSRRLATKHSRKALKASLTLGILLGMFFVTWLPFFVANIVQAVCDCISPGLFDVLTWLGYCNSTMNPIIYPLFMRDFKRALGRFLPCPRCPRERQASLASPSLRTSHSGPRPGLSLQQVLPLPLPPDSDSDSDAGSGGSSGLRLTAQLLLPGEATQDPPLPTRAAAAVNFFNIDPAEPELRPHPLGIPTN

IC50: 28 nM
SMILES: NC1CCN(c2ccc3[nH]nc(S(=O)(=O)c4cccc5ccccc45)c3c2)CC1

Reference: ChEMBL document CHEMBL1157614, “5-Cyclic amine-3-arylsulfonylindazoles as novel 5-HT6 receptor antagonists” (J Med Chem, 2010)
